The nature of the data set: Screen of EC formulations for substances that photoprotect emamectin benzoate. In kind it is physicochemical. Set-up: key: #1 represents no improvement; #3 represents those photoprotectants that conferred a significant improvement in photostability. The note with it: performance of the photostabiliser relative to the non-photostabilised EC; 2% w/w emamectin benzoate EC, photoprotectant to insecticide 1:1; deposits on glass irradiated in Suntest, HPLC-MS. As for the experimental part: The photoprotectant to be screened was either dissolved or dispersed in a simple Solvesso 200 based EC formulation containing 2% w/w emamectin benzoate, 10% w/w Soprophor BSU and 3% w/w phenyl sulfonate calx. The weight ratio of photoprotectant to insecticide was 1:1.
The ECs were diluted in water to the typical field application rate of emamectin benzoate, 10 g ai/ha at a spray volume of 200 l/ha. 2 μl droplets were applied to clean glass microscope slides and allowed to dry prior to being irradiated in an Atlas XLS+ Suntest artificial sunlight simulator, which employs a filtered xenon light source providing a spectral energy distribution similar to natural outdoor exposure. After irradiation, deposits were removed from the glass slides by a solvent wash and quantified by high performance liquid chromatography (HPLC) with mass-spectrometric (MS) detection.

Take “1-[[3-methyl-4-[(3-methylphenol)azo]phenyl]azo]-2-naphthalenol [Example 1L]”: the “Screen Result” value worked out at 3.
